The entries are a selection whose mix differs from that of the whole data set. Inconclusive results are not listed. The source made the active and inactive calls. Unless noted, calls follow the shape of the dose curve; as a rule, active = well fitted curve in the direction sought with a large enough effect; inconclusive = small, poorly fitted or top-dose-only effect, or another doubt; inactive = no such curve, though single readings can be large; an effect the other way counts as inactive or inconclusive.
Key:
[1] = biological target: RecQ-like DNA helicase BLM (Homo sapiens) (UniProt P54132); experiment: qHTS Validation Assay for Inhibitors of Bloom's syndrome helicase (BLM) (AID 2364); details: BLM helicase DNA unwinding, fluorescence, in vitro; at 57.1 µM (top of the series);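 also: plate controls were DMSO vehicle for no effect and enzyme-free control for full effect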
[2] = Cytometric Cell-Based qHTS for Inhibitors of the mTORC1 Signaling Pathway in MEF (Tsc2-/-, p53-/-) Cells (AID 2660); details: mTORC1 pathway cytometry; at 38.3 µM (top of the series);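 also: Tsc2 and p53 null MEFs carrying empty vector with compound for 24 h; percent of cells above a phospho-rpS6 to PI ratio cutoff in each well; plate controls were DMSO for no effect and rapamycin for full effect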
Summary of the method: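 Immunofluorescence qHTS of rpS6 Ser235/236 phosphorylation: MEFs (Tsc2-/-, p53-/-) treated 24 h, 37 C, in DMEM + 10% FBS. Alexa-488 signal normalized to PI count, referenced to rapamycin (7.5 nM) and DMSO; PI cell number recorded for viability.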

Chains of the proteins cited; added tags and fusions are not shown. Lines headed by an entry give the natural chain unless they say otherwise; changes in a name come on top.
UniProt P54132: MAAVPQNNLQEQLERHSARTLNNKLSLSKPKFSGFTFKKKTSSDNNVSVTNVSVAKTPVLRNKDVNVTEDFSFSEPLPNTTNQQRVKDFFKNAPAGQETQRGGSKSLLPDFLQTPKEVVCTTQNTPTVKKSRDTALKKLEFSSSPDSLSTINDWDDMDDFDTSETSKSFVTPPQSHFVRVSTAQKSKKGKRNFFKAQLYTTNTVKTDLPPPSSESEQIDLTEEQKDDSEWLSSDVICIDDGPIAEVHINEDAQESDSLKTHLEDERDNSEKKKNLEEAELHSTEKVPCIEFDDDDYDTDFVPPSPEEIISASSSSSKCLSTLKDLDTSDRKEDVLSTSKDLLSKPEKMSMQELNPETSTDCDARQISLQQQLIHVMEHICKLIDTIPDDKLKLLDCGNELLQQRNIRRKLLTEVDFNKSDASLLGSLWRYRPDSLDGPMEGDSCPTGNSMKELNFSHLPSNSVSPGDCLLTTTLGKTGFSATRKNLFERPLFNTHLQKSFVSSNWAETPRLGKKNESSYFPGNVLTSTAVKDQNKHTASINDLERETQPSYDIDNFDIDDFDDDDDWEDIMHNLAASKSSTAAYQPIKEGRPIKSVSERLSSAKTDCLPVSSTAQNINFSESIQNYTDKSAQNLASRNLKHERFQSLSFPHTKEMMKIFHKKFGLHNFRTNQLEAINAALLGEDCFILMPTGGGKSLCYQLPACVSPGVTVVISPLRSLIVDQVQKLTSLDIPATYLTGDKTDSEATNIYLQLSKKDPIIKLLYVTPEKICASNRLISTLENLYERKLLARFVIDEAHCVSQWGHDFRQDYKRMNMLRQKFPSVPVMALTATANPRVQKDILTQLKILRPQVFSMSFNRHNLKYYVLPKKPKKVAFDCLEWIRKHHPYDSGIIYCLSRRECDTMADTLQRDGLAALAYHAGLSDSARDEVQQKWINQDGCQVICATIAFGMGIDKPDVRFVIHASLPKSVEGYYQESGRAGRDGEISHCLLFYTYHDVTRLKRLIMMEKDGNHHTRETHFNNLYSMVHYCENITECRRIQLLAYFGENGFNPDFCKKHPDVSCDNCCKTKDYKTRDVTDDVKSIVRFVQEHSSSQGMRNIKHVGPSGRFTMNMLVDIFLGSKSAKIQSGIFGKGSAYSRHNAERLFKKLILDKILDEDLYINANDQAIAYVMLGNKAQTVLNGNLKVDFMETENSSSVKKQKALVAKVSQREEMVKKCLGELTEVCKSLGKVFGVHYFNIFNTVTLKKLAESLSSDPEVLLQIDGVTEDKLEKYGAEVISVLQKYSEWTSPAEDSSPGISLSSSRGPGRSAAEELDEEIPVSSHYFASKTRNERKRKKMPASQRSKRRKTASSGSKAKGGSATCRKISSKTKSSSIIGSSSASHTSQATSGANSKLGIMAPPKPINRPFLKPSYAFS
UniProt O75604: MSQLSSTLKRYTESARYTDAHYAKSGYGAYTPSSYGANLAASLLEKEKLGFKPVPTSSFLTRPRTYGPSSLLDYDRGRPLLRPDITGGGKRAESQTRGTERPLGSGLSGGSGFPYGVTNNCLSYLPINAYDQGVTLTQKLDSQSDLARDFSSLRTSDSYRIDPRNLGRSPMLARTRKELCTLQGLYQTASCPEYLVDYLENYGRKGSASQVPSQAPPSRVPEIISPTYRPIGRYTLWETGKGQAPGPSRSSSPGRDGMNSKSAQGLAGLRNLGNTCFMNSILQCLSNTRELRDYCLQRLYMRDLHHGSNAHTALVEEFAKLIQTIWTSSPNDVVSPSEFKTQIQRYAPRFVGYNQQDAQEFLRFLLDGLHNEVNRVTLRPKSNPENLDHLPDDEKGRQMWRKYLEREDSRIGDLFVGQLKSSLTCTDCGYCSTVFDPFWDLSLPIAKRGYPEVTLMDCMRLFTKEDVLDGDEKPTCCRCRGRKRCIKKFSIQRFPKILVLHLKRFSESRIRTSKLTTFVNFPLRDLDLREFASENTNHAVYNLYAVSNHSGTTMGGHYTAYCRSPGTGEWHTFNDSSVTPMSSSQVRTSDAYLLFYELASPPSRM
UniProt O89049, whole entry, looked up: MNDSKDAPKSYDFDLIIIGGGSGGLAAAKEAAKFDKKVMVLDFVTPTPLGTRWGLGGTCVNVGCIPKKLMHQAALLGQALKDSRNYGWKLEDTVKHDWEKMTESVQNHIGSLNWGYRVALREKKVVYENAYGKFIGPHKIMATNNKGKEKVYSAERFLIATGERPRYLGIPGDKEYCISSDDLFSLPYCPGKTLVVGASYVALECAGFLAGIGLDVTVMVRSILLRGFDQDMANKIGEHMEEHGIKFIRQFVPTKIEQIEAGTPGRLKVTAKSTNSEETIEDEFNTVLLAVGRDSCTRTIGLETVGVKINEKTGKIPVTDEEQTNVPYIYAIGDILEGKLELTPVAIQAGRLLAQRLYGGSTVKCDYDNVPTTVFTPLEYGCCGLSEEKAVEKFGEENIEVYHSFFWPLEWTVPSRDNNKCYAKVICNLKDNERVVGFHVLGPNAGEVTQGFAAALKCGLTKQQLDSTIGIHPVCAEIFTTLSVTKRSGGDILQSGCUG
UniProt P39748, whole entry, looked up: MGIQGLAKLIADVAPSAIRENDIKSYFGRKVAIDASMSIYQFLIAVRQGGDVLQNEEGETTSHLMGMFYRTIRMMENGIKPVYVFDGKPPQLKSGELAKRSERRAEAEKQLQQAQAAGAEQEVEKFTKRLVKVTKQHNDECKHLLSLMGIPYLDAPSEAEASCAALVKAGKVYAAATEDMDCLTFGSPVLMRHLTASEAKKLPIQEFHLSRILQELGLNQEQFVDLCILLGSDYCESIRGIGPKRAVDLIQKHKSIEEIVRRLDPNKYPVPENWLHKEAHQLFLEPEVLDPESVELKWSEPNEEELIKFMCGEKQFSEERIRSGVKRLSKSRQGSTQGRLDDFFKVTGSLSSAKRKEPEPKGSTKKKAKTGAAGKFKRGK
UniProt Q6LX38: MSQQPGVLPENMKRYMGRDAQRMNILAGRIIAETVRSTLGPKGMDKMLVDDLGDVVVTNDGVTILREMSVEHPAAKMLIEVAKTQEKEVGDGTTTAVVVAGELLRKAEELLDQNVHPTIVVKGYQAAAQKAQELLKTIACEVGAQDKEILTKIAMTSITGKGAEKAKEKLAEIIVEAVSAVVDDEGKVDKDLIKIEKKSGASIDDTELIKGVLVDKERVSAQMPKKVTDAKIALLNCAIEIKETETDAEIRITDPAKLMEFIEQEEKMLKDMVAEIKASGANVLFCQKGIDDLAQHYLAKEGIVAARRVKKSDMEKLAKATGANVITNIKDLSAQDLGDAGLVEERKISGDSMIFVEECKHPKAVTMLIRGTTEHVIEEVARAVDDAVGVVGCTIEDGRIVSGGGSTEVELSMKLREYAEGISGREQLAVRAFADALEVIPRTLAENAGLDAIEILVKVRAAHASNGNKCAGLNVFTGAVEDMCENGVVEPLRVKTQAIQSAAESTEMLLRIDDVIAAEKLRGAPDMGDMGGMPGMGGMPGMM
UniProt Q8NER1, whole entry, looked up: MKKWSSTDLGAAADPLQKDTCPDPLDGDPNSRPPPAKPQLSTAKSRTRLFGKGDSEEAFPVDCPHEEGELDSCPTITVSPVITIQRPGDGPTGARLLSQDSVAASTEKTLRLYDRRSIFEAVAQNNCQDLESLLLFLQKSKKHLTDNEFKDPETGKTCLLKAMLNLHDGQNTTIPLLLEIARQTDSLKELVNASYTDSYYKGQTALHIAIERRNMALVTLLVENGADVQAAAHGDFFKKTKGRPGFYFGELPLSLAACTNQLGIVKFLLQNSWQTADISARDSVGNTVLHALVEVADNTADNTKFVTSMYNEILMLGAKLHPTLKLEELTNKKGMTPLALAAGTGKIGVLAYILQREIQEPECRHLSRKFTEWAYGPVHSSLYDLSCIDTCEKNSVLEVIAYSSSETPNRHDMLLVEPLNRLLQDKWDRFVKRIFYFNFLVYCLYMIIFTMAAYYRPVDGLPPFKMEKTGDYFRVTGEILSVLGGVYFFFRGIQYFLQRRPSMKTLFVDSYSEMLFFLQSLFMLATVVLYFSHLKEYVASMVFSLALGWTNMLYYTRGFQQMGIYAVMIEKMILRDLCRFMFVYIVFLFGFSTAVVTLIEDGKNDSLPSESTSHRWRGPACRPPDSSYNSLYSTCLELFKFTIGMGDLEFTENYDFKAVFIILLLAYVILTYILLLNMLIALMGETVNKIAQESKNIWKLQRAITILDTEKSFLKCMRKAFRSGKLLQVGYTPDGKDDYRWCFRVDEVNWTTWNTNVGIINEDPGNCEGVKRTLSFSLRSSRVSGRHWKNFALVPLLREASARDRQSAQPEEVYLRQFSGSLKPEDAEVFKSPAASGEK
UniProt P16473, whole entry, looked up: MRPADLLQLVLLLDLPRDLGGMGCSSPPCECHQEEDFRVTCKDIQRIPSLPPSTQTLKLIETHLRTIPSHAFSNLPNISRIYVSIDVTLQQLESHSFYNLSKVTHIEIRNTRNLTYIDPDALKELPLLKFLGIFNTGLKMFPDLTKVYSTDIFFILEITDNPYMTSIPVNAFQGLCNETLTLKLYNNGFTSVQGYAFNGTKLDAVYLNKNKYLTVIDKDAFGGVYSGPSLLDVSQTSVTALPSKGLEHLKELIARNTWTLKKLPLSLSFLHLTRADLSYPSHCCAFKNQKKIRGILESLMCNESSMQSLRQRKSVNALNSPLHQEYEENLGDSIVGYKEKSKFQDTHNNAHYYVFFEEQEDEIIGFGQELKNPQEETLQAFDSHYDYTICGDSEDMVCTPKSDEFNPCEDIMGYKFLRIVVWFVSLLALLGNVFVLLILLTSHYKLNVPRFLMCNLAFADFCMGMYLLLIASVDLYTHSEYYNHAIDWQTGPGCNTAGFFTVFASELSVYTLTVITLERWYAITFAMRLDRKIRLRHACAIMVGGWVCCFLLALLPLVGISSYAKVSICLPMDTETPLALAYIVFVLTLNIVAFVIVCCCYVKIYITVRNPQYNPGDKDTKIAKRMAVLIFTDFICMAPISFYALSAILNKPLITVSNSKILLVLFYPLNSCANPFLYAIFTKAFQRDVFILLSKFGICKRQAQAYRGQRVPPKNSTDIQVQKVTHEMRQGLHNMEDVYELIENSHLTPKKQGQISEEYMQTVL
UniProt P21728, whole entry, looked up: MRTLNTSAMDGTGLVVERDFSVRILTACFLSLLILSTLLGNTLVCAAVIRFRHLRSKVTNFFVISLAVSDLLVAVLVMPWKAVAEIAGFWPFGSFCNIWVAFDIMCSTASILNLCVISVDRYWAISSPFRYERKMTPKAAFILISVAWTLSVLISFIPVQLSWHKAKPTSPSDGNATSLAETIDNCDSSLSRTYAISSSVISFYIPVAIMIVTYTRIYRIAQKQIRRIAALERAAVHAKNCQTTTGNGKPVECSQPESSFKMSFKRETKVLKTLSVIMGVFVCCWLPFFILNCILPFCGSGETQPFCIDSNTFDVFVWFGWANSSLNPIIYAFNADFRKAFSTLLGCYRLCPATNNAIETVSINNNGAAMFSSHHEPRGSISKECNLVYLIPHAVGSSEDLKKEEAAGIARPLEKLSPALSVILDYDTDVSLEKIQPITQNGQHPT

[3] = High Content Imaging Cell-Based qHTS for Inhibitors of the mTORC1 Signaling Pathway in MEF (Tsc2-/-, p53-/-) Cells (AID 2666); details: at 38.3 µM (top of the series);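 also: percent of cells scored positive for phospho-rpS6 Ser235/236 immunostaining by imaging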
Summary of the method: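 Cells were plated, dosed with compound after 24 hrs, and incubated another 24 hrs at 37 degree Celsius. Fixed cells were immunostained for phospho-rpS6 Ser235/236 and counterstained, and the normalized signal was scored as % active cells against rapamycin and DMSO controls.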

[4] = High Content Imaging Cell-Based qHTS for Inhibitors of the mTORC1 Signaling Pathway in MEF Cells (AID 2667); details: at 38.3 µM (top of the series);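 also: Tsc2-/- p53-/- MEFs stably re-expressing wild-type Tsc2 exposed 24 h; plate controls were DMSO wells for no effect and rapamycin control wells for full effect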
Summary of the method: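 Immunofluorescence for rpS6 phosphorylation in MEFs of Tsc2-/-, p53-/- background rescued with WT Tsc2. Compound exposure lasted 24 hrs. Inhibition was scored against rapamycin-treated control wells.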

[5] = Cytometry Cell-Based qHTS for Inhibitors of the mTORC1 Signaling Pathway in MEF cells (AID 2668); details: mTORC1 pathway readout; at 38.3 µM (top of the series);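 also: Tsc2-/- p53-/- mouse embryonic fibroblasts stably re-expressing wild-type Tsc2; percent cells positive for phospho-rpS6 Ser235/236 relative to propidium iodide stain; plate controls were DMSO wells for no effect and 7.5 nM rapamycin control wells for full effect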
Summary of the method: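 Read-out: phospho-rpS6 Ser235/236 immunofluorescence normalized to propidium iodide intensity, scored as % active cells against a rapamycin (7.5 nM) threshold. Cells: Tsc2-/-, p53-/- MEFs stably expressing WT Tsc2, compound-treated 24 hrs at 37 degree Celsius.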

[6] = Validation screen for small molecules that induce DNA re-replication in MCF 10A normal breast cells (AID 463097); details: MCF 10A cells, DNA re-replication phenotype imaging; at 46.1 µM (top of the series); also: 0% is about no effect; nearly all actives have a fitted effect of over 60% in size
Summary of the method: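 250 MCF 10A cells/well; compound pin-transferred; 48 hr, 37 C, 5% CO2; Hoechst 40 min; imaged 405/500-530 nm. Hits = more high-intensity nuclei.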

[7] = biological target: Ubiquitin carboxyl-terminal hydrolase 2 (Homo sapiens) (UniProt O75604); experiment: qHTS Validation Assay for Inhibitors of Ubiquitin-specific Protease USP2a Using CHOP2 as the Reporter (AID 463106); details: USP2a cleavage of CHOP2 reporter, enzymatic; at 38.3 µM (top of the series);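 also: plate controls were DMSO for no effect and full inhibition by NEM for full effect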
Summary of the method: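 10nM USP2 core + cpd, 30min RT; add 25nM Ub-CHOP2/25nM substrate; 60min RT; FI 485/531nm. Buffer Tris pH 8.0, CaCl2, BME, CHAPS. Norm. to NEM = 100% inhibition; time-zero read flags fluorescent artifacts.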

[8] = qHTS Validation Assay to Find Inhibitors of Chronic Active B-Cell Receptor Signaling (AID 485345; active = well fitted curve in the direction sought with a large enough effect in the main read-out, with a control signal flat, not every such curve was filed as active;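 also: 0% = untreated basal cells and 100% = 10 µM MG-132 proteasome inhibitor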); details: ABC-DLBCL cells, chronic BCR signaling reporter, CBG luciferase; at 46.1 µM (top of the series)
Summary of the method: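 Read-out: ratio of filter-corrected green (IkappaBalpha fusion) to red (native) luciferase signal in doxycycline-induced TMD8 cells after 4 h at 37C. Titration spanned 46 uM–3 nM; Data were normalised to basal cells and 10 uM MG-132 wells.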

[9] = biological target: Beta-2 adrenergic receptor (Homo sapiens) (UniProt P07550); experiment: qHTS validation assay of beta-arrestin-biased ligands of beta2-adrenergic receptor (AID 485366); details: cell-based beta-arrestin recruitment to ADRB2, qHTS; at 46.1 µM (top of the series); also: 0% is about no effect
Summary of the method: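 Arrestin-recruitment (Tango) reporter: ligand-bound beta2-AR recruits beta-arrestin, releasing tTA, which upregulates luciferase. Titrations of up to 46 microM incubated 18 hr at 37 degrees C before luminescent readout.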

[10] = biological target: Thioredoxin reductase 1, cytoplasmic (Rattus norvegicus) (UniProt O89049); experiment: qHTS Assay for Substrates of Mammalian Selenoprotein Thioredoxin Reductase 1 (TrxR1) (AID 488772); details: purified TrxR1, NADPH consumption substrate assay; at 57.1 µM (top of the series);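 also: NADPH fluorescence in the first read after selenite addition and not the 8 min delta; 0% is about no effect; a drop in NADPH fluorescence below the no-compound background marks a TrxR1 substrate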
Summary of the method: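 Quantitative HTS in Tris-HCl buffer at pH 7.5 with EDTA and Tween-20, using rat TrxR1, 400 uM NADPH and 400 uM selenite (final). A fall in initial NADPH fluorescence relative to background marked substrate behaviour.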

[11] = biological target: Flap endonuclease 1 (Homo sapiens) (UniProt P39748); experiment: qHTS Validation Assay for the Inhibitors of Human Flap endonuclease 1 (FEN1) (AID 488816); details: FEN1 nuclease activity, fluorogenic DNA substrate; at 57.1 µM (top of the series); also: % is scaled to controls: 0 for no effect and ±100 for the full control effect
Summary of the method: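 Readings taken at 0 and 15 min after starting the reaction with 50 nM (final) substrate supplied the signal. Compounds had first sat with 10 nM FEN1 reagent for 15 min at room temperature. Values come from Hill-equation concentration-response fits.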

[12] = biological target: Methanococcus maripaludis chaperonin (MmCpn) (UniProt Q6LX38); experiment: High-Throughput Screening for Modulators of Cytosolic Chaperonin Activity: MmCpn Primary Screen (AID 488978); details: MmCpn chaperonin refolding activity, biochemical qHTS; at 76.9 µM (top of the series);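 also: 50 nM MmCpn enzyme hydrolysing 30 µM ATP at 37 °C; 0% is about no effect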
Summary of the method: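 ADP formation read by HTRF Transcreener, 665/590 nm emission after 320 nm excitation. Enzyme: archaeal chaperonin at 50 nM final; substrate ATP 30 uM final; 10 min, 37C, after 5 min compound preincubation at RT.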

[13] = biological target: Transient receptor potential cation channel subfamily V member 1 (Homo sapiens) (UniProt Q8NER1); experiment: HTS Assay for Compounds that Act as Enhancers of the Vanilloid Receptor 1 (AID 488979); details: TRPV1-expressing cells, enhancer of channel activity, stimulated with capsaicin at EC20; at 41.7 µM (top of the series); also: 0% is about no effect
Summary of the method: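 Calcium influx kinetics via Fluo-8 (480/520 nm) in TRPV1-expressing cells, 2000/well cultured overnight at 35.5C. Compound-alone read 3 min (agonist phase), followed by EC20 capsaicin challenge for 2 min (enhancer phase).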

[14] = biological target: Thyrotropin receptor (Homo sapiens) (UniProt P16473); experiment: qHTS Assay for Antagonists of the Thyroid Stimulating Hormone Receptor (AID 488980); details: TSHR-expressing cells, cAMP antagonist read-out; at 57.5 µM (top of the series); also: 0% is about no effect
Summary of the method: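 TSHR-HEK293 cells; 70 uM RO 20-1724 PDE inhibitor; compound + EC80 TSH (4 nM final); anti-cAMP cryptate antibody/cAMP-d2 in lysis buffer, 30 min RT; HTRF 665/620 nm read.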

[15] = biological target: D(1A) dopamine receptor (Homo sapiens) (UniProt P21728); experiment: HTS Assay for Allosteric Agonists of the Human D1 Dopamine Receptor: Primary Screen for Agonists (AID 488981); details: D1 receptor-expressing cells, agonist cAMP readout; at 41.8 µM (top of the series); also: 0% is about no effect
Summary of the method: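 Calcium flux in an inducible, force-coupled HEK293 Trex D1 line (overnight at 30 C): agonist mode is the 180 s kinetic read after compound; potentiator mode is the following 180 s read after dopamine at EC20.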

[16] = biological target: D(1A) dopamine receptor (Homo sapiens) (UniProt P21728); experiment: HTS Assay for Allosteric Agonists of the Human D1 Dopamine Receptor: Primary Screen for Potentiators (AID 488982); details: D1 receptor cells, potentiator mode, cAMP signal; at 8.37 µM (top of the series); also: 0% is about no effect
[17] = biological target: D(1A) dopamine receptor (Homo sapiens) (UniProt P21728); experiment: HTS Assay for Allosteric Agonists of the Human D1 Dopamine Receptor: Primary Screen for Antagonists (AID 488983); details: D1 receptor cell assay, antagonist mode, qHTS titration; at 41.8 µM (top of the series);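 also: calcium flux response to an EC80 dopamine challenge measured with no-wash dye; % is scaled to controls: 0 for no effect and ±100 for the full control effect; nearly all actives have a fitted effect of over 65% in size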

CN(CCCl)Cc1cc(Cl)c(NC2=NCCN2)c(Cl)c1
inactive: activity change, negative = inhibition [1] 1.77% | activity change, negative = inhibition [2] -17.1% | outcome [3] | activity change, negative = inhibition [4] -100% | activity change, negative = inhibition [5] 1.57% | re-replication induction [6] 15.7% | activity, negative = inhibition [7] 0.549% | activity change [8] -17.9% | activation [9] 0.967% | activity change, negative = NADPH consumption [10] -11% | activity, negative = inhibition [11] -1.88% | activity change, negative = inhibition [12] 0.124% | activity change, positive = enhancement [13] -1.68% | activity, negative = inhibition [14] -0.0078% | activation [15] 0.952% | activity, positive = potentiation [16] 12% | activity change, negative = inhibition [17] 7.24%

Source: PubChem BioAssay (NCATS)
